# Binding of CDR-mutated scFvs to a peptide of the spike HR2 region

Data: MIT Lincoln Laboratory AlphaSeq set, Engelhart et al. 2022, doi:10.1038/s41597-022-01779-4, as distributed in FLAb.

Target: peptide PDVDLGDISGINAS, taken from heptad repeat 2 (HR2) of SARS-CoV-2 spike.

Parent scFv Ab-14: VH joined to VL by a (GGGGS)3 linker. Changes lie in the heavy chain CDRs alone.
VH: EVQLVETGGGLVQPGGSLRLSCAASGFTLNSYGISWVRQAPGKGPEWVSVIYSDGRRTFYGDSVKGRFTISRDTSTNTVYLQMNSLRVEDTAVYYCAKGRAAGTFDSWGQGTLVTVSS
VL: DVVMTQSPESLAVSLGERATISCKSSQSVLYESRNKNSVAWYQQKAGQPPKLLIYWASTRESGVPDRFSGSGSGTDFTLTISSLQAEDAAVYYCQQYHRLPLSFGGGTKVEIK

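The starting antibody came from a phage panning campaign against this peptide. Library AAYL49 holds single substitutions and randomly drawn double and triple substitutions in the CDRs. The scFvs were displayed on barcoded MATa yeast, the peptide on MATalpha yeast. Binding brings cells together so that they mate, and sequencing counts the barcode pairs among the diploids. The ratio of observed to expected reads was calibrated, replicate by replicate, on BCL2-family standards whose Kd was known from biolayer interferometry. Each pool was mated in three replicate cultures.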

Sequences are complete VH domains. Kd is apparent (estimated from mating counts) and averaged on the log scale over replicates with a signal. Smaller is tighter. A pair that was not seen in any replicate is written "nd"; this usually means weak binding, but a binder can also be missed. Entries are sorted by rising average, undetected variants last.

600 nM (3 of 3 replicates): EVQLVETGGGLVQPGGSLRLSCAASGFKLNSYGISWVRQAPGKGPEWVSVIYSDGRRTFLGDSVKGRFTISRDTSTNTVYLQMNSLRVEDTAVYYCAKGRHAGTFDSWGQGTLVTVSS.
4.6 µM (1 of 3 replicates): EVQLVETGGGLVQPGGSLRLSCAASNFTYNSYGISWVRQAPGKGPEWVSVIYSDGRRTFYGDSVKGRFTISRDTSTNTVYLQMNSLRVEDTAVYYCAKGRAAGTFDSWGQGTLVTVSS.
6.4 µM (1 of 3 replicates): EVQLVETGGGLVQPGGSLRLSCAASGFTLNSYGWSWVRQAPGKGPEWVSVIYSDGRRTFYACSVKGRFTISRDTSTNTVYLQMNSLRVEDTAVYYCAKGRAAGTFDSWGQGTLVTVSS.
11 µM (1 of 3 replicates): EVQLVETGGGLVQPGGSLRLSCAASGFTLNSYGISWVRQAPGKGPEWVSVKYSDGRRTFYGDSVKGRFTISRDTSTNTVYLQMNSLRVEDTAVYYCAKGRAAVTQDSWGQGTLVTVSS.
27 µM (2 of 3 replicates): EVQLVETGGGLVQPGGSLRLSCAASGFTLNSYGISWVRQAPGKGPEWVSVIYTDGRRTFYGDSVKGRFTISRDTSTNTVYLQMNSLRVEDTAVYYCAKGDAAGTADSWGQGTLVTVSS.
33 µM (1 of 3 replicates): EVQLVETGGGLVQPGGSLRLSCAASGFTLNSYGISWVRQAPGKGPEWVSTIYSDGRRTFYNDGVKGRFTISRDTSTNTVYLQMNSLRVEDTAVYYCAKGRAAGTFDSWGQGTLVTVSS.
110 µM (1 of 3 replicates): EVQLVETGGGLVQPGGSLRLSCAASGFTLISYGISWVRQAPGKGPEWVSVIYSDGRRTFYGNSVKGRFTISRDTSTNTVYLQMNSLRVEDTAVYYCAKGRAAGTIDSWGQGTLVTVSS.
nd (0 of 3 replicates): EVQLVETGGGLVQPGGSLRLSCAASGFTLNSYGISWVRQAPGKGPEWVSVIHSDGRRTFYGDVVKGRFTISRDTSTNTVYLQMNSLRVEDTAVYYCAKGRAAGTFDSWGQGTLVTVSS.
nd (0 of 3 replicates): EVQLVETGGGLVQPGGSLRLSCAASGFTLNSYDISWVRQAPGKGPEWVSVIYSDGGRTFYVDSVKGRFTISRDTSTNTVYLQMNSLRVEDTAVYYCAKGRAAGTFDSWGQGTLVTVSS.
nd (0 of 3 replicates): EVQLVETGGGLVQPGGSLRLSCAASGFTLRSYGISWVRQAPGKGPEWVSVIYSDGRRTFYGDSVKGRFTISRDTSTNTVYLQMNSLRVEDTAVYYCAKGRGSGTFDSWGQGTLVTVSS.
nd (0 of 3 replicates): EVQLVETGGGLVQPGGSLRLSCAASGFTLNSYGISWVRQAPGKGPEWVSVIYSDGMRPFYGDSVKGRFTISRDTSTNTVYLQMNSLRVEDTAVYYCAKGRAAITFDSWGQGTLVTVSS.
nd (0 of 3 replicates): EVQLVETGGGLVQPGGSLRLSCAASGITLNSYPISWVRQAPGKGPEWVSVIYSDGRRTFYGDSVKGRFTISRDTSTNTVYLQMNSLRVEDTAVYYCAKFRAAGTFDSWGQGTLVTVSS.
nd (0 of 3 replicates): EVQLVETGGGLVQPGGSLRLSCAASGFTLNSYGISWVRQAPGKGPEWVSHIYSDGRRTFYGGSVKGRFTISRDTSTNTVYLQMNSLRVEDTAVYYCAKGRAAGTFGSWGQGTLVTVSS.
nd (0 of 3 replicates): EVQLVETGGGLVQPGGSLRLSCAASGFTLNSYGISWVRQAPGKGPEWVSVIYSDGRFTFYGDSVKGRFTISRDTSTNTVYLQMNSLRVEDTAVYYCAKGRAAKTQDSWGQGTLVTVSS.
nd (0 of 3 replicates): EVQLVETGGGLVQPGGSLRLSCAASGFTLNSYGISWVRQAPGKGPEWVSVIYSAGTRTFYGDSVKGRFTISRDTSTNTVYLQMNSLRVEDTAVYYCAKRRAAGTFDSWGQGTLVTVSS.

The closing 2 entries, repeated:

| VH | Kd (apparent) | seen in |
|---|---|---|
| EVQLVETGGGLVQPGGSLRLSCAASGFTLNSYGISWVRQAPGKGPEWVSVIYSDGRFTFYGDSVKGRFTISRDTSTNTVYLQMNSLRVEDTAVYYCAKGRAAKTQDSWGQGTLVTVSS | nd | 0/3 |
| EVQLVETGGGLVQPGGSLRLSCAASGFTLNSYGISWVRQAPGKGPEWVSVIYSAGTRTFYGDSVKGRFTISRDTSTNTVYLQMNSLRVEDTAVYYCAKRRAAGTFDSWGQGTLVTVSS | nd | 0/3 |

For reference, the parent read 4.4 nM as the reference entry and 13 µM (one replicate of three) as a member of this library. Nonspecific signal, from three strains lacking the peptide, appeared in 15% of pairings of library AAYL49, centred on 11 µM (5% of these signals below 680 nM); values are not corrected for it.